“And” between values parts separate entries of the source, which are not always exact repeats. Equal values may be shown once.
Molecular target: T1, His6-AspH315–758 (Homo sapiens, UniProt Q12797)
T1 construct: A mixture of SYPRO orange (1‰v/v) and His6-AspH315–758 (4 μM) in 50 mM aqueous HEPES buffer; made in house; host or cells: Escherichia coli BL21 (DE3), pET-28a(+) vector
T1 sequence (Q12797 315-758): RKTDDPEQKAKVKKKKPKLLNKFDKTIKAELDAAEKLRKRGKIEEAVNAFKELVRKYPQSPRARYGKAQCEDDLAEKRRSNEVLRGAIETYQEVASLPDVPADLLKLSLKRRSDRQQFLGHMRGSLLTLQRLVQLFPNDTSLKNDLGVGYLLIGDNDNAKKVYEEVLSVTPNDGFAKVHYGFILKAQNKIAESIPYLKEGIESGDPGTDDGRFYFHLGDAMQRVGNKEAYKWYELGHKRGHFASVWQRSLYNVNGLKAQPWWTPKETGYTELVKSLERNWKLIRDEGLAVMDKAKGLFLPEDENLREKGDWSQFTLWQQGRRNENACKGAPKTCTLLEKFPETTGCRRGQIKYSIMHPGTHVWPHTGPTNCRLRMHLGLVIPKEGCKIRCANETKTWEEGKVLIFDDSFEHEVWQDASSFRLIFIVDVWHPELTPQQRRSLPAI
Test: AspH differential scanning fluorimetry (DSF) assay, melting temperature shift
Format: binding
Method: A mixture of SYPRO orange (1‰v/v) and His6-AspH315–758 (4 μM) in 50 mM aqueous HEPES buffer (pH 7.5, 150 mM NaCl, 50 μM NiCl2) was carefully pipetted into a 96-well VWR PCR-plate (38 μL per well). An inhibitor solution (0.8 mM in DMSO) or a negative control sample (pure DMSO) was added to each well (2 μL per well, final inhibitor concentration of 40 μM) and the resulting solutions were gently mixed using a pipette. The plate was sealed with optical tape (Bio-Rag, iCycler iQ), centrifuged (5 sec, 1000 rpm) and placed into a C1000Touch Thermal Cycler equipped with a CFX96 Real-Time System (Bio-Rad). The instrument was heated with a rate of 1 °C per cycle (starting at an initial temperature of 25 °C; 70 cycles total). Data were analyzed using Microsoft Excel and GraphPad Prism according to the literature.[107] DSF assays were performed in independent duplicates, each composed of technical duplicates (Supporting Fig. S4).

With `Cc1c(N)nc([C@H](CC(N)=O)NC[C@H](N)C(N)=O)nc1C(=O)N[C@H](C(=O)N[C@H](C)[C@@H](O)[C@H](C)C(=O)N[C@H](C(=O)NCCc1nc(-c2nc(C(=O)NCCC[S+](C)C)cs2)cs1)[C@@H](C)O)[C@@H](O[C@@H]1O[C@@H](CO)[C@@H](O)[C@H](O)[C@@H]1O[C@H]1O[C@H](CO)[C@@H](O)[C@H](OC(N)=O)[C@@H]1O)c1c[nH]cn1` [Bleomycin A2, reference compound] the “Tm-shift (ΔTm) of AspH” value was −0.8 ± 0.4 °C and ~ −0.8 °C.

— paper PMC7588595, “Small-molecule active pharmaceutical ingredients of approved cancer therapeutics inhibit human aspartate/asparagine-β-hydroxylase” (Bioorganic & Medicinal Chemistry, 2020)
